Experiments:
Male CD1 mice = conditions: 30 mg/kg, p.o., 60 minutes prior to the trial, FIG. 6
Male Swiss albino mice = conditions: 30 minutes post treatment, last 4 minutes of 6 min, FIG. 7
Male Wistar rats = assay: Object recognition task, in vivo model for chemotherapy-induced (DOX) cognitive impairment; conditions: DOX 2.5 mg/kg i.p. induced cognitive impairment, FIG. 2

COCCCN1CCC(c2nnc(-c3nn(C(C)C)c4ccccc34)o2)CC1.O=C(O)C(=O)O [Compound-1, Isopropyl-3-{5-[1-(3-methoxypropyl)piperidin-4-yl]-[1,3,4]oxadiazol-2-yl}-1H-indazole oxalate]
aggression levels (duration of attack) (Male CD1 mice): decreased | duration of immobility (Male Swiss albino mice): significantly decreased | discriminative index (Male Wistar rats): significantly higher

— patent publication US12285421B2, “Uses of a 5-HT4 receptor agonist” (SUVEN LIFE SCIENCES LIMITED, priority 2018, dated 2025)
